Common to all, as to assay: MTT assay for cell proliferation
In general terms: Formazan colour is commonly taken as a measure of viable cells.

For one assay, the system named is HEL. In kind it is cell-based. The conditions noted are these: Homo sapiens, 72 h, read-out: IC50(μM) ± SD, tumor cell proliferation.
The subject of another assay is Molm-13. It is filed as cell-based. The conditions noted are these: Homo sapiens, MOLM-13, 72 h, read-out: IC50(μM) ± SD, tumor cell proliferation.
A further assay deals with Ba/F3-FLT3-ITD. In kind it is cell-based, Murine. The settings on record: Mus musculus, 72 h, read-out: IC50(μM) ± SD, tumor cell proliferation.
For a further assay, the system named is Ba/F3-FLT3-ITD^F691. In kind it is cell-based, Murine. The settings on record: Mus musculus, 72 h, read-out: IC50(μM) ± SD, tumor cell proliferation.
A further assay concerns Ba/F3-FLT3-ITD^D835V. It is filed as cell-based, Murine. The conditions noted are these: Mus musculus, 72 h, read-out: IC50(μM) ± SD, tumor cell proliferation.

With `N#CC[C@H](C1CCCC1)n1cc(-c2ncnc3[nH]ccc23)cn1` [Ruxolitinib], the IC50 was 1.3 ± 0.89 µM in the assay with HEL; greater than 10 µM in the assay on Molm-13; greater than 10 µM in the assay with Ba/F3-FLT3-ITD; greater than 10 µM with Ba/F3-FLT3-ITD^F691; greater than 10 µM with Ba/F3-FLT3-ITD^D835V.

The values above are taken from paper PMC8901636, “Preclinical studies of Flonoltinib Maleate, a novel JAK2/FLT3 inhibitor, in treatment of JAK2^V617F-induced myeloproliferative neoplasms” (Blood Cancer Journal, 2022).
